Results: patent US20240307373A1, “METHODS OF USE AND COMPOSITIONS OF BISBENZYLISOQUINOLINES FOR THE TREATMENT OF MALIGNANCIES” (priority 2023, published 2024)
Where “and” joins values, the source holds several entries; their conditions need not be identical. Equal entries are not always repeated.

The chains behind the UniProt entries cited, without tags or fusion partners. Where a name states a change or a piece, a line headed by the entry shows the natural chain unless it says otherwise.
UniProt Q13555: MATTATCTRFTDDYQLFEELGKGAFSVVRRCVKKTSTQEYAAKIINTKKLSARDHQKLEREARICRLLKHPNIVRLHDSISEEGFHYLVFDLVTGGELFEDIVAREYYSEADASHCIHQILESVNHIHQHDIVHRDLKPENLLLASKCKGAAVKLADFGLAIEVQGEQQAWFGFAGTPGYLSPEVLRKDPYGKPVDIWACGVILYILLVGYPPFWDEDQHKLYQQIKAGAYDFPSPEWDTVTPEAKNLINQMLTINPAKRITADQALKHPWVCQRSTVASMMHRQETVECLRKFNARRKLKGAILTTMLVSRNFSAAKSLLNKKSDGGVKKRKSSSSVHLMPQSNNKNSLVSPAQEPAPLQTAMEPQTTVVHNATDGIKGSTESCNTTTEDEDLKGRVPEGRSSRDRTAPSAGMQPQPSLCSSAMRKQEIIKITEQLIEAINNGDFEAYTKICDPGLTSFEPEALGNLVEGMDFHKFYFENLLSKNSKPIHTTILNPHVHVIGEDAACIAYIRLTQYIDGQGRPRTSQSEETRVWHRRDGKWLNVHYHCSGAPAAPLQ

Molecular target: T1, CAMKII gamma (Homo sapiens, UniProt Q13555)
T1 construct: purchased Promega V3531
Experiment: CAMKII gamma kinase activity (ADP Glo)
Format: biochemical

## CN[C@@H]1C[C@H]2O[C@@](C)([C@@H]1OC)n1c3ccccc3c3c4c(c5c6ccccc6n2c5c31)C(=O)NC4 [Staurosporin, reference compound]
10 nM inhibitor, 10 uM ATP
  mean (units): 0.915 units
  units (duplicate reactions): 0.93 units and 0.9 units
10 nM inhibitor, 50 uM ATP
  mean (units): 7.285 units
100 nM inhibitor, 10 uM ATP
  mean (units): 0.2 units
  units (duplicate reactions): 0.25 units and 0.15 units
100 nM inhibitor, 50 uM ATP
  mean (units): 0.635 units
  units (duplicate reactions): 0.67 units and 0.6 units
